Laboratory results published in patent US20260258035A1, “FIVE-MEMBERED AND SIX-MEMBERED NITROGEN-CONTAINING COMPOUND, AND INTERMEDIATE, PREPARATION METHOD AND USE THEREOF” (HANGZHOU SYNRX THERAPEUTICS BIOMEDICAL TECHNOLOGY CO., LTD., priority 2022, published 2026).
“And” between values parts separate entries of the source, which are not always exact repeats. Identical values can stand only once. Like-named read-outs stand apart in the source and are kept apart here.

Sequences of proteins named here, by UniProt entry; tags and fusion partners are left off.
UniProt Q86W56, whole entry: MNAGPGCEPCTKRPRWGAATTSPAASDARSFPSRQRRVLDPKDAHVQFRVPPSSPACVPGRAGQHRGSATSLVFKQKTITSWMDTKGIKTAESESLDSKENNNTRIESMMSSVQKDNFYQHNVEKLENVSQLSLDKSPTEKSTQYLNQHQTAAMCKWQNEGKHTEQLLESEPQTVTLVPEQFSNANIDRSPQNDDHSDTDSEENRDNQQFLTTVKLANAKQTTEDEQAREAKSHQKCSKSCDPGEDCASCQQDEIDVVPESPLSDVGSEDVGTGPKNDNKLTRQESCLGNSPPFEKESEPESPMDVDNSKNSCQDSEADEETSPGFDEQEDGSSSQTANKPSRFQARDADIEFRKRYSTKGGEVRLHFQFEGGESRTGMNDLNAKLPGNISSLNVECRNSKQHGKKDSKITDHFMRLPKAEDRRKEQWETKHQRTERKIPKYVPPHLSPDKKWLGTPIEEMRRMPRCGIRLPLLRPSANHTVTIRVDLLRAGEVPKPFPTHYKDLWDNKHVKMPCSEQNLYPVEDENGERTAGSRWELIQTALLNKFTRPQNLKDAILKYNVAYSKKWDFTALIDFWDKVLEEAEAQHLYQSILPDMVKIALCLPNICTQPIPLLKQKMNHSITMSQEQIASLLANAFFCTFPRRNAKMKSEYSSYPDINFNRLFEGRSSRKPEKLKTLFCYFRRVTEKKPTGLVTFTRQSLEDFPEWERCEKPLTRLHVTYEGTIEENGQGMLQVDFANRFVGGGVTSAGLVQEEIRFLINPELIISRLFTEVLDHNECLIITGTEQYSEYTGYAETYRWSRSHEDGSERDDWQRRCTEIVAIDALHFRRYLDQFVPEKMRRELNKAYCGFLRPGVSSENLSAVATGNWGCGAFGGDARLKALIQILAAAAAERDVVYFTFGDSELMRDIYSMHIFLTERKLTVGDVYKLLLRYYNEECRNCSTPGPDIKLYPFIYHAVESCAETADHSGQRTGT
UniProt O75469, whole entry: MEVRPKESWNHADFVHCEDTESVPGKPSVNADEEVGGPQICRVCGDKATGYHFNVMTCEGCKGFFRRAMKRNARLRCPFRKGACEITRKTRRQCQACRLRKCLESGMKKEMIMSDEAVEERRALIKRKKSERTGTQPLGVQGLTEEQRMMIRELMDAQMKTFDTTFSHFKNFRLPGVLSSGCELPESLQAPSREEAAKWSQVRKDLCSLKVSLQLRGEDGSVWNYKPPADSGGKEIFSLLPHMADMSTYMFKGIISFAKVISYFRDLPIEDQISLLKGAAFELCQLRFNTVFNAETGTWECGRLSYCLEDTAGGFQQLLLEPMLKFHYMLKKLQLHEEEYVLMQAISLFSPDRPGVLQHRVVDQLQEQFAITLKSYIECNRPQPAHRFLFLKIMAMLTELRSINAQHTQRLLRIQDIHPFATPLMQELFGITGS

Experiments:
[1] = tested on: Human breast squamous carcinoma cells HCC1806; experiment: Cell function assay (In-Cell Western, PAR/pADPr after MMS); format: cell-based; conditions: read-out: IC50 (nM) in cell function assay
Experimental: 2. Cell Function Assay (In-Cell Western)
• 1) Human breast squamous carcinoma cells HCC1806 (ATCC) were seeded to the 384-well plate (Corning, #3764) at 20,000 cells/well, incubated for 24 h in a CO2 (5%) incubator at 37° C. to allow for complete adherence of the cells; • 2) 120 nL compounds or DMSO were added to the 384-well plate by Echo 550 (LABCYTE, #550) (final concentrations of compounds: 30000 nM, 10000 nM, 3000 nM, 1000 nM, 300 nM, 100 nM, 30 nM, 10 nM, 3 nM, 1 nM, 0 nM), and then the cells were incubated for 1 h in a CO2 (5%) incubator at 37° C.; • 3) 40 nL MMS (methyl mesylate, Sigma, #129925)(final concentration: 0.5 mM) was added to the plate by Echo 550, and the cells were treated for 1 h in a CO2 (5%) incubator at 37° C. 4) the culture medium was discarded, and the cells were fixed with 50 μL/well 3.7% paraformaldehyde for 20 min at room temperature; • 5) the cells were washed three times with PBST (136 mM NaCl, 2.6 mM KCl, 8 mM Na2HPO4, 2 mM KH2PO4, 0.05% Tween-20) buffer, each time 5 min; • 6) after fixation, the cells were permeabilized with 50 µL/well 0.3% Triton X-100 for 5 min at room temperature; • 7) the cells were washed three times with PBST (136 mM NaCl, 2.6 mM KCl, 8 mM Na2HPO4, 2 mM KH2PO4, 0.05% Tween-20) buffer, each time 5 min; • 8) after cell permeabilization, the cells were blocked with 50 μL/well 5% BSA for 90 min at room temperature; • 9) after cell blocking, the PAR/pADPr (R&D, #4335-MC-100) antibody (diluted 1:2000) was added at 25 µL/well to the cells and then incubated for 16 h at 4° C.; • 10) the cells were washed four times with PBST (136 mM NaCl, 2.6 mM KCl, 8 mM Na2HPO4, 2 mM KH2PO4, 0.05% Tween-20) buffer, each time 5 min; • 11) 800CW goat anti-mouse (diluted 1:200) (LiCRO, #926-32210) and DRAQ5 (diluted 1:200) (Cell Signaling Technology, #4084L) were added at 25 µL/well to the cells, and then incubated for 60 minutes at room temperature; • 12) the cells were washed four times with PBST (136 mM NaCl, 2.6 mM KCl, 8 mM Na2HPO4, 2 mM KH2PO4, 0.05% Tween-20) buffer, each time 5 min; • 13) PBS (136 mM NaCl, 2.6 mM KCl, 8 mM Na2HPO4, 2 mM KH2PO4) buffer was added to the cells, and Li-Cor Bioscience scanning was used for signal detection; • 14) the data were analyzed using GraphPad software to determine the IC50.

HCC1806 = experiment: Cell viability assay (CellTiter-Glo); format: cell-based, Human; conditions: read-out: IC50 (nM) in cell viability assay
Experimental: • 1) HCC1806 (Nanjing Cobioer, ATCC cell bank, 200 cells/well) was plated in the 96-well plate, and incubated for 24 h in a CO2 (5%) incubator at 37° C. to allow for complete adherence of the cells; • 2) media (100 L/well) containing the compounds (final concentrations of compounds: 30000 nM, 10000 nM, 3000 nM, 1000 nM, 300 nM, 100 nM, 30 nM, 10 nM, 3 nM, 1 nM, 0 nM) were added to the cells, and then, incubated for 7 days in the C02 (50%) incubator at 37° C.; • 3) the culture plate containing the cells was held at room temperature for 30 min to equilibrate the plate and its contents to room temperature; • 4) CellTiter-Glo (Promega: V9101) reagent (100 μL/well) was added to each well of cells, and the contents were mixed on an orbital shaker for 2 minutes; • 5) the plate was incubated at room temperature for 10 min to stabilize the signal, and detected by the microplate reader (Thermo: VarioskanLUX); • 6) data were analyzed using GraphPad software to determine the IC50.

PARG = PARG (Homo sapiens, UniProt Q86W56); experiment: Biochemical assay (PARG, TFMU-ADPr substrate); conditions: read-out: IC50 (nM) in biochemical assay
PXR = PXR (Homo sapiens, UniProt O75469); experiment: PXR assay (DPX2 luciferase reporter cells); conditions: 24 h
Experimental: 1) Information of Cell Line
DPX2 (HepG2 cells stably transfected with PXR and luciferase reporter) cells were purchased from Puracyp Inc (Carlsbad, CA).
2) Experimental Procedures a) Reagents and Consumables
The DPX2 cells were cultured in the growth medium containing 1000 fetal bovine serum. The DPX2 cells in a T-75 flask were cultured in the […] incubator at 37° C. with 950% relative humidity, and digested when the cells grew to cover 80-90% of the bottom of the flask.
The surface layer of the T-75 cultured cells was washed with 10 mL of PBS; PBS was pipetted; 3-5 mL of tryp sin was added; the cells were digested at 37° C. for 5 minutes or until the cells were digested to be suspended; and excessive medium containing fetal bovine serum was added to stop trypsinization. […]
d) Quantitative Detection with PXR Activation
After 24 hours of dosing, the culture could be quantitatively detected with PXR activation. […] The cell culture plate was taken out from the incubator, and cooled slightly to room temperature; and the fluorescence value was determined with a fully automatic quantitative microplate reader, with the excitation light of 400 nm and the emission light of 505 nm. The ONE-Glo reagent was poured into the loading slot, with 25 μL per well, and the resulting mixture was gently mixed in the plate, and incubated at room temperature for 5 minutes to determine the luminescence value.

[2] = HCC1806, In-Cell Western, MMS treatment
[3] = HCC1806, compound 1 h then 0.5 mM MMS 1 h, PAR/pADPr antibody, In-Cell Western
[4] = 4 nM PARG, 66.2 uM TFMU-ADPr, 3 min at room temperature

| Compound | IC50 [1, 2] [nM] | IC50 [1, 3] [nM] | IC50 (HCC1806) | IC50 (PARG; [4]) [nM] | IC50 (PARG; PARG, TFMU-ADPr substrate) [nM] | PXR Activation @30 uM (Fold) (PXR) | PXR Activation @30 uM (% Ctrl) (PXR; positive control rifampicin) | IC50 (HCC1806; HCC1806, 7 days, CellTiter-Glo) |
| --- | --- | --- | --- | --- | --- | --- | --- | --- |
| CC(C)C(=O)N1CCN(c2cc(S(=O)(=O)NC3(C#N)CC3)cn3c(-c4nnc(C(F)F)s4)cnc23)CC1 | 22.4 | < 100 | 500 to 5000 nM and 456 nM | < 100 | 1.99 |  |  |  |
| CC1(NS(=O)(=O)c2cc(N3CCN4C(=O)CCC4C3)c3cnc(-c4nnc(C(F)F)s4)n3c2)COC1 (stereo not shown) |  |  |  |  | 6.23 | 2.2 | 12 | 593 nM |
| CC1(C(=O)N2CCN(c3cc(S(=O)(=O)NC4(C#N)CC4)cn4c(-c5nnc(C(F)F)s5)ncc34)C[C@H]2CF)CC1 | 2.89 | < 100 |  | < 100 | 13.2 |  |  | 500 to 5000 nM and 990 nM |
| Cn1cnc2c(-c3cc(S(=O)(=O)NC4(C#N)CC4)cn4c(-c5nnc(C(F)F)s5)ncc34)cccc21 |  |  |  | < 100 | 45.6 |  |  |  |
